In US20260048036A1, “CRYSTALLINE FORMS OF A GLUCOSYLCERAMIDE SYNTHASE INHIBITOR AND USES THEREOF” (ACELINK THERAPEUTICS, INC., priority 2022, published 2026):

Test: Solubility at 37° C. in pH buffers and bio-relevant media
[1] = pH 6.8, 50 mM phosphate buffer, cells wrap: 'No form' + 'change', 'Amorphous' + 'form'

SMILES	XRPD (24 h) of residual solids [1]	XRPD (24 h) of residual solids (FaSSIF-V1, pH 6.5, cell wraps: 'No form' + 'change')	XRPD (24 h) of residual solids (Water, cell wraps: 'No form' + 'change')	XRPD (24 h) of residual solids (pH 4.5, 50 mM acetate buffer, cell wraps: 'No form' + 'change')
O=C(N[C@H](CN1CCCC1)[C@H](O)c1ccc(OC2CC2)c(Cl)c1)/C(=N/O)c1ccc2cc(Cl)ccc2c1.O=C(O)C[C@H](O)C(=O)O	Amorphous			
O=C(N[C@H](CN1CCCC1)[C@H](O)c1ccc(OC2CC2)c(Cl)c1)/C(=N/O)c1ccc2cc(Cl)ccc2c1.O=C(O)C(O)C(O)C(=O)O	Amorphous			
O=C(N[C@H](CN1CCCC1)[C@H](O)c1ccc(OC2CC2)c(Cl)c1)/C(=N/O)c1ccc2cc(Cl)ccc2c1 [Crystalline Form A of Compound 1]	No form	No form	No form	No form
